This assay concerns the target T1, NAD-dependent protein deacetylase sirtuin-2 (Homo sapiens) (UniProt Q8IXJ6).
T1 sequence (whole entry): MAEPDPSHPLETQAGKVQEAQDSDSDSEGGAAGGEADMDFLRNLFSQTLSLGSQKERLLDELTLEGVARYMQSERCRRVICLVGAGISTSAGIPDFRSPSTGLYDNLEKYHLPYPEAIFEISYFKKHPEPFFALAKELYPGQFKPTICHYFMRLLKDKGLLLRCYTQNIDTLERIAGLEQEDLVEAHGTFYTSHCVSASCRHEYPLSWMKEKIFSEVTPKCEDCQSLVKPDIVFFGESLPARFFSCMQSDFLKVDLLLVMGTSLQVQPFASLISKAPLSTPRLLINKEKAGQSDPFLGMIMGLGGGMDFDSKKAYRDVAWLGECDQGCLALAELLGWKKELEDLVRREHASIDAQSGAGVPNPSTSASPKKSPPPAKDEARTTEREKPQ
The following applies: at 10 µM.

Here are results for one compound from ChEMBL document CHEMBL3232889, “Identification of novel SIRT2-selective inhibitors using a click chemistry approach” (Bioorg Med Chem Lett, 2014).

Calls of active or inactive are those of the source. The rule behind the calls is not given here.
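Note: recombinant enzyme with Fluor-de-Lys substrate, compound preincubated 60 min before substrate, fluorescence read after a further 60 min.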

On to `[N-]=[N+]=Nc1ccc([N+](=O)[O-])cc1`, for which the inhibition result is “Active”.
